Target: delta opiate receptor (Homo sapiens, UniProt P41143)
Experiment: cAMP accumulation, HEK293 cells transfected with DA receptor, delta opiate receptor and AC7
Type: cell-based
Set-up: expressed in transfected cells; host or cells: HEK293 (ATCC), calcium phosphate transient transfection
Details: DOR, BCUKA 10 and 20 μM, DPDPE 1 μM, FIG. 2

Amino acid sequences for entries named in this document (tags omitted).
UniProt P41143, whole entry: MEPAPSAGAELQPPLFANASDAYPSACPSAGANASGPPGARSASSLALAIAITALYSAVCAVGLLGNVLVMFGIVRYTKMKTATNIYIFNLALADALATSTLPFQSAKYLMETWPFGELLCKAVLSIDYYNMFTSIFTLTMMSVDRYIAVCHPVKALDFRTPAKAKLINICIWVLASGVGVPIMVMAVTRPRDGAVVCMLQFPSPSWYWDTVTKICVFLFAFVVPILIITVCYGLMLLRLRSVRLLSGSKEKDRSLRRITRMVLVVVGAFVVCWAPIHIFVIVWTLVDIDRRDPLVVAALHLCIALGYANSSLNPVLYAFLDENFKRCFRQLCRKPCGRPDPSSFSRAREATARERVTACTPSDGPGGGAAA

## DPDPE [reference compound]
  Effect on cAMP accumulation in the presence of dopamine: significantly increased

Reference: patent US10435371B2, “Multifunctional aminoquinoline therapeutic agent” (LOHOCLA RESEARCH CORPORATION, priority 2014, dated 2019)
